This is an account of results in patent US9629836B2 (priority 2013, dated 2017).

By IC50 is commonly meant the concentration needed to halve the response being measured.

Each structure is given as a SMILES string. Counter-ions that a name gives are not always drawn.

This test relates to phospho-ERK1/2 in human melanoma A375 cells. The test is described as follows: cells. The note with it: A-375, 3 h, read-out: A375 ICW IC50.

As for `Cc1nc2cnc3cc(F)c(-c4ccc(Oc5ncccn5)cc4Cl)cc3c2n1[C@H]1CCN(C(=O)COS(=O)(=O)O)C[C@@H]1F` [Example 91, 2-((3S,4S)-4-(8-(2-chloro-4-(pyrimidin-2-yloxy)phenyl)-7-fluoro-2-methyl-1H-imidazo[4,5-c]quinolin-1-yl)-3-fluoropiperidin-1-yl)-2-oxoethyl hydrogen sulfate], the IC50 is more than 10 µM.
